Literature values as cited in PMC8154576, “GPR120/FFAR4 Pharmacology: Focus on Agonists in Type 2 Diabetes Mellitus Drug Discovery” (Journal of Medicinal Chemistry, 2021).
pEC50: −log10 of the molar value. Where two headings read alike, the source gives them in different places.

Assays:
hGPR120 [1] = settings: read-out: hGPR120 EC50 (β-arr)
DIO mice = settings: mouse, in vivo
hGPR40 = settings: read-out: hGPR40 EC50 (Ca2+)
hGPR120 [2] = settings: read-out: hGPR120 EC50 (Ca2+)
[3] = in vivo

Compound: [2H]C([2H])(Cc1ccc(OCc2cc(F)ccc2-c2ccc(C)cc2)cc1)C(=O)O [Compound 18]
- pEC50 (hGPR120 [1]): 7.20
- glucose levels (DIO mice): significant reduction in glucose levels

Compound: Cc1ccc(-c2ccc(F)cc2COc2ccc(CCC(=O)O)cc2)cc1 [Compound 4]
- GLP-1 secretion from STC-1 cells (STC-1 cells): statistically significant GLP-1 secretion

Compound: Cc1ccc(-n2nc(C)c3ccc(-c4ccc([C@@H]5C[C@H]5C(=O)O)cc4)cc32)cc1 [Compound 29]
- pEC50 (hGPR40): < 4.00
- pEC50 (hGPR120 [2]): 6.44
- pEC50 (muGPR40): < 4.00
- oral exposure [3]: moderate oral exposure
